Data reported in ChEMBL document CHEMBL4371002 (J Med Chem, 2018).

By UniProt entry, the sequences of proteins in these tests, tags left out. Where a name states a change or a piece, a line headed by the entry shows the natural chain unless it says otherwise.
UniProt P62942, whole entry: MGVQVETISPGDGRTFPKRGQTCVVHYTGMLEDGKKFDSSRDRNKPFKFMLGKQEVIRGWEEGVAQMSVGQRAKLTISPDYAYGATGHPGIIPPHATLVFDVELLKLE
UniProt P41145: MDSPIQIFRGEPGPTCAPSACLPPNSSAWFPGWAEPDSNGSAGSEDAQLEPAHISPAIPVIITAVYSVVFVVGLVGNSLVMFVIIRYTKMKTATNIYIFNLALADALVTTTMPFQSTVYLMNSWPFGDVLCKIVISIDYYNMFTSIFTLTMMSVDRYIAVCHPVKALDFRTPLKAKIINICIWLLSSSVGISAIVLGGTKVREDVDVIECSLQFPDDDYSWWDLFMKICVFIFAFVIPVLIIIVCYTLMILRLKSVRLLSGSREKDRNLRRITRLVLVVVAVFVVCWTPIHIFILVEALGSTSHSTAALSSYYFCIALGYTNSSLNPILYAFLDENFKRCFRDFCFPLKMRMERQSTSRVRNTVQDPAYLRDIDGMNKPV

What was measured:
[1] = target: Peptidyl-prolyl cis-trans isomerase FKBP1A (Homo sapiens, UniProt P62942); experiment: biochemical; assay type: cell-based
[2] = target: Kappa-type opioid receptor (Homo sapiens, UniProt P41145); assay type: cell-based, CHO
[3] = target: T1, 3-oxo-5-alpha-steroid 4-dehydrogenase 2 (Homo sapiens, UniProt P31213)
T1 sequence (P31213 whole entry): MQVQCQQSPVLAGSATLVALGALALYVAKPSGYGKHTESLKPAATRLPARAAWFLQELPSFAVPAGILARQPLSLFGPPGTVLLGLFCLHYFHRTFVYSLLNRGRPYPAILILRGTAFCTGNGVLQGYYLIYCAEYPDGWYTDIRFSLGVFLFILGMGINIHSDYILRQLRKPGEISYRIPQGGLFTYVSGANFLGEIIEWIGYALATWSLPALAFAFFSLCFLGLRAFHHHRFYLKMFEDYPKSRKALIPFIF

[4] = target: T1, 3-oxo-5-alpha-steroid 4-dehydrogenase 2; remark: listed apart in the source

Row | Structure (SMILES) | Ki [1] | EC50 [2] | IC50 [3] | IC50 [4]
1 | COc1cc(C(=O)C(=O)N2CCCC[C@H]2C(=O)OC(CCCc2ccccc2)CCCc2cccnc2)cc(OC)c1OC (stereo partly specified) | 0.3 nM | – | – | –
2 | CC(C)C[C@H](NC(=O)[C@H](Cc1ccccc1)NC(=O)CNC(=O)C/C=C(\F)[C@@H](N)Cc1ccc(O)cc1)C(=O)O | – | > 10000 nM | – | –
3 | CC(NC(=O)[C@H]1CC[C@H]2[C@@H]3CC[C@H]4NC(=O)C=C[C@]4(C)[C@H]3CC[C@]12C)(c1ccccc1)C(F)(F)F (stereo partly specified) | – | – | 3.3 nM | 16 nM
4 | C[C@]12C=CC(=O)N[C@@H]1CC[C@@H]1[C@@H]2CC[C@]2(C)[C@@H](C(=O)NC(c3ccccc3)(C(F)(F)F)C(F)(F)F)CC[C@@H]12 | – | – | 1.8 nM | 20 nM
